Data taken from patent publication US11357851B2, “Uses of myostatin antagonists, combinations containing them and uses thereof” (Novartis AG, priority 2015, dated 2022).

Protein sequences, listed by entry. Tags and fused reporters are not part of them. Residues count along the entry.
UniProt Q13705, 19-512: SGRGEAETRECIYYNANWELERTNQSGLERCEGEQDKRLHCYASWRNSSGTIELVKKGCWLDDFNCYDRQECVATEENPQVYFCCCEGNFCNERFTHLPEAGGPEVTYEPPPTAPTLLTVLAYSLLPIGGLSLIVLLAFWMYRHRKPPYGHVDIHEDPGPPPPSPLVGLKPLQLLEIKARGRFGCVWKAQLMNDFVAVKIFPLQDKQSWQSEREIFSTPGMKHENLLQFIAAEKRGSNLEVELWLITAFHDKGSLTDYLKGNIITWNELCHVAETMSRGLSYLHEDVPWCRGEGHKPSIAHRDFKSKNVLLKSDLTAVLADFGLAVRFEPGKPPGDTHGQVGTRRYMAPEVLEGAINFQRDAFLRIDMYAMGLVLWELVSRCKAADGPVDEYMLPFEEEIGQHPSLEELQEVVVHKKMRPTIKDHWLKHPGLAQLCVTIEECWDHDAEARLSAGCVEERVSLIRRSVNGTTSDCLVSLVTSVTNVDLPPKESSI
UniProt P27037, 20-513: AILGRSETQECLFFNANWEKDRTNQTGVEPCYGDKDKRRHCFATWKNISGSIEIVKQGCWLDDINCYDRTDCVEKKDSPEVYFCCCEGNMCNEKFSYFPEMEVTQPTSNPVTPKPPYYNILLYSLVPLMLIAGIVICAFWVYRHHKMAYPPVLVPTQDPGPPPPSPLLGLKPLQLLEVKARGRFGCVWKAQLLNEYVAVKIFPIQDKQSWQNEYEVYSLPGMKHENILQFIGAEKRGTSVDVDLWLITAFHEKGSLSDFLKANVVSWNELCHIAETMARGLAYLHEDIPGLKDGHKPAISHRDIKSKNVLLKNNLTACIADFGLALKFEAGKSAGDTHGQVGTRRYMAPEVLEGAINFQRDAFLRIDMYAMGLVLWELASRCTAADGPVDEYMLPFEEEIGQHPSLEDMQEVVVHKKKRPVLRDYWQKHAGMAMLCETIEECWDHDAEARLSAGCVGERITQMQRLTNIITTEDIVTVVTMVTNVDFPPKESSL

Key:
human ActRIIB = human ActRIIB (Homo sapiens, UniProt Q13705); assay: Binding affinity of bimagrumab to human ActRIIB
human ActRIIA = human ActRIIA (Homo sapiens, UniProt P27037); assay: Binding affinity of bimagrumab to human ActRIIA

In the case of “Bimagrumab: fully human monoclonal antibody (modified IgG1, 234-235-Ala-Ala, λ2) binding activin receptor type II (ActRII)”, the Kd (human ActRIIB) is reported as 1.7 ± 0.3 pM and the Kd (human ActRIIA) is reported as 0.434 ± 0.025 nM.
